## AlphaSeq binding of Ab-14 light chain variants to a spike HR2 peptide

From the AlphaSeq antibody data of Li et al. 2023 (doi:10.1038/s41467-023-39022-2), copy in the FLAb collection.

Antigen: PDVDLGDISGINAS, a 14-residue peptide of the SARS-CoV-2 spike HR2 region.

Parent: Ab-14, a human scFv built as VH, the linker GGGGSGGGGSGGGGS, VL. Only the CDRs of the light chain vary.
VH: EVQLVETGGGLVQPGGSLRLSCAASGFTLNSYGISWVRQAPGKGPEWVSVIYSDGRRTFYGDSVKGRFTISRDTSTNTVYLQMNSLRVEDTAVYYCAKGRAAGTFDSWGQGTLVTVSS
VL: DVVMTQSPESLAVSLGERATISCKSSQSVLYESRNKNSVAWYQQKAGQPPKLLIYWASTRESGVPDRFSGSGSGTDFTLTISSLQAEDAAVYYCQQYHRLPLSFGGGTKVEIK

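Phage display of a naive human antibody library on the peptide gave the parent. Designed CDR sequences, proposed from the first random library and measured here. Group labels follow the data file (Ctrl: baseline library sampled from a position-specific scoring matrix, with some repeated check sequences; En: ensemble of fine-tuned language models; GP: Gaussian process model; HC: hill climbing; Gen: genetic algorithm; Gibbs: Gibbs sampling; a sequence that several methods proposed may carry one label only). The scFvs were displayed on barcoded MATa yeast, the peptide on MATalpha yeast. The frequency of each diploid, read from paired DNA barcodes, reflects how well the two displayed proteins bind. Scores were corrected for input abundance and mapped to Kd with protein pairs of known affinity run in the same pool. Mating was done six times.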

Each variant is given by its three light chain CDRs, as the data file delimits them; those of the parent are KSSQSVLYESRNKNSVA, WASTRES, QQYHRLPLS. The read-out is the apparent dissociation constant on a log10 scale (nM): the lower, the stronger. The mean shown is taken over the replicates in which the pair was detected. Where no diploid with the target was found in that replicate, the entry reads "nd": below detection, most likely a poor binder, though not proof of it. The parent sequence was in this pool as ten entries: three were never detected, three once, and four in most replicates, with averages from 0.34 to 2.37. Background: pairings of all light chain designs with three empty control strains gave a value in 4% of cases (median 2.64, 5th percentile 1.59). Values in that range, when seen in few replicates, are hard to tell from nonspecific mating. A sequence measured in both rounds can read differently, since the two assays cover different ranges. The authors averaged sequences with at least three values out of six and counted those with two or fewer as poor binders.

{"CDR-L1": "KFEMLWDYEDRNLNSVA", "CDR-L2": "NASTRES", "CDR-L3": "QQYHRLPLS", "group": "GP_Gibbs", "replicates, log10 nM": "0.25 0.38 0.28 0.23 0.51 0.53", "mean log10 Kd (nM)": "0.36"}
{"CDR-L1": "KFQQMVMMGDRNKNSVA", "CDR-L2": "WASQRLQ", "CDR-L3": "QQYHRLPLS", "group": "GP_Gibbs", "replicates, log10 nM": "1.79 0.97 0.96 1.40 0.81 0.82", "mean log10 Kd (nM)": "1.13"}
{"CDR-L1": "KITLPTGMWLNKANSIA", "CDR-L2": "DASSSME", "CDR-L3": "QQYYWLPLT", "group": "En_Gibbs", "replicates, log10 nM": "1.23 0.69 nd 2.01 1.68 1.39", "mean log10 Kd (nM)": "1.40"}
{"CDR-L1": "KSSQSVLMESRNKHSVA", "CDR-L2": "WASTRES", "CDR-L3": "QLYHRLPLS", "group": "Ctrl", "replicates, log10 nM": "nd nd nd nd nd nd", "mean log10 Kd (nM)": "nd"}
{"CDR-L1": "MISQMYNMGQFAINSVA", "CDR-L2": "QATERNE", "CDR-L3": "QQYDRLPLI", "group": "En_Gen", "replicates, log10 nM": "0.73 nd nd 1.98 nd nd", "mean log10 Kd (nM)": "1.36"}
{"CDR-L1": "NLNDSPMYAQIHKDAIA", "CDR-L2": "QETQRNA", "CDR-L3": "QQYAKLPLS", "group": "En_Gibbs", "replicates, log10 nM": "0.27 0.52 0.69 0.47 0.49 0.45", "mean log10 Kd (nM)": "0.48"}
{"CDR-L1": "KSSQSVLYESGNGNSVA", "CDR-L2": "WASIRES", "CDR-L3": "QQYHRLVFS", "group": "Ctrl", "replicates, log10 nM": "nd nd nd nd nd nd", "mean log10 Kd (nM)": "nd"}
{"CDR-L1": "KVSCSVMLESRNWNAVA", "CDR-L2": "EASQRES", "CDR-L3": "QQYHRLPLS", "group": "GP_Gibbs", "replicates, log10 nM": "0.93 0.59 0.89 0.51 0.73 1.08", "mean log10 Kd (nM)": "0.79"}
{"CDR-L1": "TLYGLTNSMTKNKDNVA", "CDR-L2": "EMSTREL", "CDR-L3": "QQYDRLPLM", "group": "En_Gen", "replicates, log10 nM": "0.98 nd 1.31 1.03 1.80 1.53", "mean log10 Kd (nM)": "1.33"}
{"CDR-L1": "KVSQSQLYESRNKNSVA", "CDR-L2": "NASTRMS", "CDR-L3": "QQYHRLPLS", "group": "GP_Gen", "replicates, log10 nM": "0.26 0.14 0.00 0.15 0.22 0.38", "mean log10 Kd (nM)": "0.19"}
{"CDR-L1": "KLSQSMLYESRNKNSVA", "CDR-L2": "NASTRES", "CDR-L3": "QQYHRLPLM", "group": "GP_Gen", "replicates, log10 nM": "0.23 -0.12 -0.17 0.00 -0.03 -0.06", "mean log10 Kd (nM)": "-0.03"}
{"CDR-L1": "KSSQSVLYESRNKNSVA", "CDR-L2": "WASTREK", "CDR-L3": "QQYHRLVLS", "group": "Ctrl", "replicates, log10 nM": "nd 3.19 nd 2.31 2.23 nd", "mean log10 Kd (nM)": "2.58"}
{"CDR-L1": "KLKYQADQYGMQWNNVA", "CDR-L2": "QADIRAP", "CDR-L3": "QQYNKLPLN", "group": "En_Gibbs", "replicates, log10 nM": "0.80 0.76 0.72 0.59 0.58 0.62", "mean log10 Kd (nM)": "0.68"}
{"CDR-L1": "HITMGMYVMGRHHSSIA", "CDR-L2": "QAETRAK", "CDR-L3": "QQYDRLPLI", "group": "En_Gen", "replicates, log10 nM": "nd nd nd nd nd nd", "mean log10 Kd (nM)": "nd"}
{"CDR-L1": "TISQMSTLFSQSINNVA", "CDR-L2": "EVSTRLN", "CDR-L3": "QQYDRLPLT", "group": "En_Gen", "replicates, log10 nM": "0.94 1.01 0.99 0.57 0.65 1.03", "mean log10 Kd (nM)": "0.87"}
{"CDR-L1": "KFSQSVLYEGRNKNSVA", "CDR-L2": "WASTRES", "CDR-L3": "QQYHRLPLS", "group": "Ctrl", "replicates, log10 nM": "0.90 0.94 0.96 0.76 0.58 0.85", "mean log10 Kd (nM)": "0.83"}
{"CDR-L1": "KLPQSVLYESRNKNAVA", "CDR-L2": "DASTRES", "CDR-L3": "QQYHRLPLS", "group": "GP_Gen", "replicates, log10 nM": "-0.13 0.29 -0.43 -0.10 -0.31 -0.24", "mean log10 Kd (nM)": "-0.15"}
{"CDR-L1": "HISMLTLQGMRQRNSVA", "CDR-L2": "QMTTREN", "CDR-L3": "QQYDRLPLS", "group": "En_Gen", "replicates, log10 nM": "0.47 1.10 0.75 0.76 0.67 0.60", "mean log10 Kd (nM)": "0.72"}
{"CDR-L1": "KSSQSWLYESRNKNSVA", "CDR-L2": "HASTREK", "CDR-L3": "QQYHRLPLS", "group": "Ctrl", "replicates, log10 nM": "0.34 0.42 0.16 0.48 0.47 0.42", "mean log10 Kd (nM)": "0.38"}
{"CDR-L1": "QFSQSFLYESRNKNSVA", "CDR-L2": "GASTRES", "CDR-L3": "QQYHRLPLS", "group": "GP_HC", "replicates, log10 nM": "-0.15 -0.38 -0.45 -0.52 -0.23 -0.37", "mean log10 Kd (nM)": "-0.35"}

A selection of 2 entries from above:

{"CDR-L1": "KFSQSVLYEGRNKNSVA", "CDR-L2": "WASTRES", "CDR-L3": "QQYHRLPLS", "group": "Ctrl", "replicates, log10 nM": "0.90 0.94 0.96 0.76 0.58 0.85", "mean log10 Kd (nM)": "0.83"}
{"CDR-L1": "KFEMLWDYEDRNLNSVA", "CDR-L2": "NASTRES", "CDR-L3": "QQYHRLPLS", "group": "GP_Gibbs", "replicates, log10 nM": "0.25 0.38 0.28 0.23 0.51 0.53", "mean log10 Kd (nM)": "0.36"}